In patent publication US20250195504A1, “NALTREXAMINE DERIVATIVES BEARING 5-MEMBER HETEROCYCLIC RING SYSTEMS AND OPIOID RECEPTOR MODULATORS” (VIRGINIA COMMONWEALTH UNIVERSITY, priority 2022, published 2025):

Tests used:
[1] = test system: male Swiss Webster mice; experiment: warm-water tail immersion assay, antagonism of morphine's antinociception; conditions: mouse, in vivo
[2] = biological target: T1, DOR (Homo sapiens, UniProt P41143); experiment: competitive radioligand binding assay, DOR ([3H]diprenorphine, CHO cell membranes)
T1 construct: expressed in transfected cells; host or cells: CHO

[3] = biological target: T2, KOR (Mus musculus, UniProt P33534); experiment: competitive radioligand binding assay, KOR ([3H]diprenorphine, CHO cell membranes); design: expressed in transfected cells; host or cells: CHO
[4] = biological target: MOR (Mus musculus, UniProt P42866); experiment: MOR [35S]GTPγS functional assay (MOR-CHO membranes); type: biochemical; design: expressed in transfected cells; host or cells: CHO; conditions: read-out: MOR [35S]GTPγS Binding % Emax of DAMGO, Example 1 compounds; relative to 3 μM DAMGO
[5] = biological target: T1, DOR; experiment: DOR [35S]GTPγS binding assay; type: biochemical
[6] = AMES testing
[7] = biological target: T2, KOR; experiment: KOR [35S]GTPγS binding assay; type: biochemical; design: expressed in transfected cells; host or cells: CHO
[8] = Caco-2 permeability; conditions: human, Caco-2, pH 7.4
[9] = Example 1 compounds, ratio of Ki

For O=C(N[C@@H]1CC[C@@]2(O)[C@H]3Cc4ccc(O)c5c4[C@@]2(CCN3CC2CC2)[C@H]1O5)c1cccs1 [Example 1 compound 26, 17-Cyclopropylmethyl-3,14β-dihydroxy-4,5α-epoxy-6β-(2′-thienylcarboxamido)morphinan hydrochloride], the “AD50 mg/kg (95% CL) to antagonize morphine mediated antinociception” value [1] was 1.62 mg/kg.

With O=C(Cc1ccsc1)N[C@H]1CC[C@@]2(O)[C@H]3Cc4ccc(O)c5c4[C@@]2(CCN3CC2CC2)[C@H]1O5 [Example 1 compound 33, 17-Cyclopropylmethyl-3,14β-dihydroxy-4,5α-epoxy-6α-(3′-thienylacetamido)morphinan hydrochloride] the “Selectivity δ/μ” value [2, 9] was 173, the “Selectivity κ/μ” value [3, 9] was 3 and the Emax [4] was 20 to 30%.

For O=C(N[C@H]1CCC2(O)C3Cc4ccc(O)c5c4[C@@]2(CCN3CC2CC2)[C@H]1O5)c1ccc[nH]1 (stereo partly drawn) [Example 1 compound 1, 17-Cyclopropylmethyl-3,14β-dihydroxy-4,5α-epoxy-6a-[(2′-pyrrolyl)carboxamido]morphinan hydrochloride], the EC50 [5] was 26.9 ± 3.23 nM, the AMES testing [6] was “No toxicity shown” and the EC50 [7] was 14.8 ± 0.99 nM.

In the case of O=C(N[C@H]1CC[C@@]2(O)[C@H]3Cc4ccc(O)c5c4[C@@]2(CCN3CC2CC2)[C@H]1O5)c1cccs1 [Example 1 compound 25, 17-Cyclopropylmethyl-3,14β-dihydroxy-4,5α-epoxy-6α-(2′-thienylcarboxamido)morphinan hydrochloride], the Emax [4] is reported as 20 to 30%.

With O=C(N[C@H]1CC[C@@]2(O)[C@H]3Cc4ccc(O)c5c4[C@@]2(CCN3CC2CC2)[C@H]1O5)c1ccsc1 [Example 1 compound 31, 17-Cyclopropylmethyl-3,14β-dihydroxy-4,5α-epoxy-6α-(3′-thienylcarboxamido)morphinan hydrochloride] the efflux ratio at 1 h, 10 μM [8] was 4, the Emax [4] was 30 to 50% and the “Tail flick assay (dose response) AD50” value [1] was “The AD50 of NAH was determined as 1.51 (1.08- mg/kg”.

With O=C(N[C@@H]1CC[C@@]2(O)[C@H]3Cc4ccc(O)c5c4[C@@]2(CCN3CC2CC2)[C@H]1O5)c1ccsc1 [Example 1 compound 32, 17-Cyclopropylmethyl-3,14β-dihydroxy-4,5α-epoxy-6β-(3′-thienylcarboxamido)morphinan hydrochloride] the “AD50 mg/kg (95% CL) to antagonize morphine mediated antinociception” value [1] was 6.81 mg/kg.

For O=C(CCc1cccs1)N[C@H]1CC[C@@]2(O)[C@H]3Cc4ccc(O)c5c4[C@@]2(CCN3CC2CC2)[C@H]1O5 [Example 1 compound 29, 17-Cyclopropylmethyl-3,14β-dihydroxy-4,5α-epoxy-6α-[3′-(thiophen-2″yl)propanamido]morphinan hydrochloride], the “Selectivity δ/μ” value [2, 9] was 7, the “Selectivity κ/μ” value [3, 9] was 4 and the Emax [4] was 30 to 50%.

With O=C(Cc1ccsc1)N[C@@H]1CC[C@@]2(O)[C@H]3Cc4ccc(O)c5c4[C@@]2(CCN3CC2CC2)[C@H]1O5 [Example 1 compound 34, 17-Cyclopropylmethyl-3,14β-dihydroxy-4,5α-epoxy-6β-(3′-thienylacetamido)morphinan hydrochloride] the “Selectivity δ/μ” value [2] was 176 and the “Selectivity κ/μ” value [3] was 6.

Where a name gives a salt, the structure may show the parent alone. Read-outs that look alike come from different tables or passages of the source.
